The list shows a part of the results, in another mix than the full data. Activity calls are given as the source filed them.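 The calls were made as follows: active = inhibition above the mean of all tested compounds plus 3 SD, cutoff set per campaign (cut at about 30% in these data); inactive = the rest.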

Amino acid sequences for entries named in this document (tags omitted).
UniProt Q07817, whole entry, looked up: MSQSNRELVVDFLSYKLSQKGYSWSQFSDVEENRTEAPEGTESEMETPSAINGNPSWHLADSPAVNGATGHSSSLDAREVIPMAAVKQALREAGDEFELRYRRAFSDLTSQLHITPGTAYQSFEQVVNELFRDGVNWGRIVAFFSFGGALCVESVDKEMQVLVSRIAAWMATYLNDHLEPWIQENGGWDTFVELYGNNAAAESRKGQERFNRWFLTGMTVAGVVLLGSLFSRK

This experiment has as its target Bcl-2-like protein 1 (Homo sapiens) (UniProt Q07817). As to the kind of experiment: inhibitors of human Bcl-xL, primary screen, biochemical, fluorescence polarization, HTS (AID 2129).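 Also: 0% = DMSO wells and 100% = unlabeled Bim-BH3 peptide competitor; inhibitors lower millipolarization by displacing the labeled peptide.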 The note with it: GST-Bcl-xL / FITC-Bim BH3 peptide fluorescence polarization; at 10.9 µM; stronger effect = higher value.
On to `Cc1nn(-c2ccccc2)c2c1P(=O)(N1CCOCC1)N(C)C(c1ccccc1)=N2` (stereo unspecified), for which the inhibition is inactive: 0.18%. The result for `Cc1ccc(C(=O)OC2CN3CCC2CC3)cc1` (stereo unspecified) reads inactive: 2.83%; that for `CC1CCC(C(C)C)C(OP(=O)(Nc2ccccn2)c2ccccc2)C1` (stereo unspecified), inactive: 3.07%. The result for `O=C(/C=C/c1ccccc1)OC1CN2CCC1CC2` (stereo unspecified) reads inactive: -4.96%.

Take `CN(C)C1(CNC(=O)c2ccc(S(C)(=O)=O)cc2)CCCCC1`: the inhibition was inactive: 4.62%. The result for `O=P1(Nc2ncccn2)COc2ccccc2OC1` reads inactive: 0.55%; that for `NS(=O)(=O)c1cccc(NC(=O)COC(=O)C(O)(c2ccccc2)c2ccccc2)c1`, inactive: 1.38%. In the case of `O=P1(Nc2ccc(Br)cn2)COc2ccccc2OC1`, the inhibition is inactive: 5.34%. Under `Cc1ccc(OCC(=O)OC2CN3CCC2CC3)cc1` (stereo unspecified) stands inactive: 4.31%. Under `O=[As](O)(c1cccs1)c1cccs1` stands inactive: 2.49%; under `Nc1cccc([As](=O)(O)c2ccccc2)c1`, inactive: 3%; under `CN(CCCl)Cc1cc(Cl)c(NC2=NCCN2)c(Cl)c1`, inactive: 9.76%.

Take `CCOP(=O)(Nc1ccc(C)cn1)OCC`: the inhibition is inactive: 2.16%.

As to `CCC1=CC2Cc3nc4ccc(Cl)cc4c(N)c3C(C1)C2` (stereo unspecified), the inhibition was inactive: 8.04%. Regarding `O=P1(Nc2ccccn2)COc2ccccc2OC1`, the inhibition was inactive: 0.02%.

As for `CCOP(=O)(NC(=NC(C)c1ccccc1)NC(C)c1ccccc1)OCC` (stereo unspecified), the inhibition is inactive: 0.75%. Consider `Clc1n[nH]nc1-c1nn[nH][15n]1`, for which the inhibition was inactive: 11.2%. For `CC(C)(C)C(=O)NC(Sc1ncccn1)C(Cl)(Cl)Cl` (stereo unspecified), the inhibition is inactive: 3.78%. Under `COc1ccccc1CNC(=O)COC(=O)C(O)(c1ccccc1)c1ccccc1` stands inactive: 0.84%. The result for `O=[As](O)(c1ccccc1Br)c1ccccc1Br` reads inactive: -1.81%; that for `CC1(CBr)Cn2c(nc3ccccc3c2=O)S1` (stereo unspecified), inactive: 4.27%. Turning to `CN(C(=O)Cc1ccc(Cl)c(Cl)c1)[C@@H]1CCCC[C@H]1N1CCCC1`, the inhibition is inactive: 8.14%.

Take `CC(C)/C=N\N=C(\N)N[N+](=O)[O-]`: the inhibition is inactive: 3.56%. The result for `COc1cc(C(=O)NCC2(N3CCOCC3)CCCCC2)cc(Cl)c1OC(C)C` reads inactive: 0.13%; that for `O=[As](O)(O)c1cccnc1`, inactive: 0.88%. The result for `CS(=O)(=O)c1ccc(Cl)c(NC(=O)COC(=O)C(O)(c2ccccc2)c2ccccc2)c1` reads inactive: 2.8%; that for `O=C(OC1CN2CCC1CC2)c1ccc(Cl)cc1` (stereo unspecified), inactive: -0.31%; that for `O=[As](O)(c1cccc(O)c1)c1cccc(O)c1`, inactive: 8.76%. Under `Cc1cccc(OCC(=O)OC2CN3CCC2CC3)c1` (stereo unspecified) stands inactive: 9.22%. For `CCCOP(=S)(Nc1nc(N)cc(=O)[nH]1)OCCC`, the inhibition is inactive: 1.54%.

Consider `Cc1ccc(NCCc2c([N+](=O)[O-])cc([N+](=O)[O-])cc2[N+](=O)[O-])cc1`, for which the inhibition was inactive: 10.3%. The result for `COc1cc(C2NCCC3(OCCO3)C2(C)C)cc(OC)c1OC` (stereo unspecified) reads inactive: -4.42%; that for `CCOP(=O)(Nc1cccc2ccccc12)OCC`, inactive: 3.8%.

Consider `CS(=O)(=O)c1cc([N+](=O)[O-])c2no[n+]([O-])c2c1`, for which the inhibition is active: 50.4%. Regarding `CCOP1(=S)c2c(C)nn(CCC#N)c2N=C(c2ccccc2F)N1C` (stereo unspecified), the inhibition is inactive: 1.02%. Under `O=P(Nc1nccs1)(c1ccccc1)c1nc2ccccc2s1` (stereo unspecified) stands inactive: -8.11%; under `O=P(Nc1nccs1)(Oc1ccccc1)Oc1ccccc1`, inactive: -0.85%; under `O=C(O)COc1ccc([As](=O)(O)O)cc1[N+](=O)[O-]`, inactive: -1.27%. On to `Nc1ccccc1[As](=O)(O)c1ccccc1`, for which the inhibition was inactive: 0.73%.

As to `NC(=O)Nc1ccc([As](=O)(O)O)cc1`, the inhibition was inactive: 7.65%. Under `CN(C)C(=O)c1cc([N+](=O)[O-])cc2c1-c1c(cc([N+](=O)[O-])cc1[N+](=O)[O-])C2=O` stands inactive: 3.31%. For the compound `O=[N+]([O-])c1ccc2c(c1)nnn2O`, the inhibition is inactive: 8.2%. The result for `CN(C(=O)Cc1ccc(Cl)c(Cl)c1)[C@H]1CC[C@@]2(CCCO2)C[C@@H]1N1CCCC1` reads inactive: 8.26%; that for `N#CCCN(C(=O)COC(=O)C(O)(c1ccccc1)c1ccccc1)c1ccc(F)cc1`, inactive: 1.74%; that for `CN(C(=O)Cc1ccccc1)[C@@H]1CC[C@]2(CCCO2)C[C@H]1N1CCCC1`, inactive: 8.37%.

Regarding `CCOP1(=S)c2c(C)nn(CCC#N)c2N=C(c2ccc(F)cc2)N1C` (stereo unspecified), the inhibition was inactive: 4.61%. Consider `O=[As](O)(c1ccc(O)cc1)c1ccccc1O`, for which the inhibition was inactive: -1.7%. Under `C[As](=O)(O)c1cccc(C(=O)O)c1` stands inactive: 3.92%; under `COc1cc(C(=O)NCC2(N3CCOCC3)CCCCC2)ccc1OCC(C)C`, inactive: 0.87%; under `Cc1ccc2nc3c(c(C)c2c1)CC(C(Cl)Cl)S3` (stereo unspecified), inactive: 5.29%. Regarding `Cc1ccc(OP(=O)(Nc2ccc([N+](=O)[O-])cn2)Oc2ccc(C)cc2)cc1`, the inhibition is inactive: 2.63%. Under `CC(C)c1ccc(OP(=O)(Nc2ccccn2)Oc2ccccc2F)cc1` (stereo unspecified) stands inactive: -1.72%; under `ClCCSc1nnc(-c2cccnc2)o1`, inactive: 0.97%. Take `CCN(CC)C(=S)SC(NC=O)C(Cl)(Cl)Cl` (stereo unspecified): the inhibition is inactive: -2.4%. Under `CC(C)NC(=O)NP(=O)(Oc1ccccc1)Oc1ccccc1` stands inactive: 1.5%. The result for `O=[N+]([O-])c1cc([N+](=O)[O-])c(-c2ccn[nH]2)s1` reads inactive: 4.65%; that for `O=C(OC1CN2CCC1CC2)C12CC3CC(CC(C3)C1)C2` (stereo unspecified), inactive: 3.79%. The result for `Cc1cc(=O)[nH]c(N[N+](=O)[O-])n1` reads inactive: -2.41%; that for `Cc1c2c(nc3ccccc13)SC(C(Cl)Cl)C2` (stereo unspecified), inactive: 6.76%; that for `COc1ccc2nc(NP(=O)(c3ccccc3)c3ccccc3)sc2c1`, inactive: 6.4%. For `COc1cc(I)ccc1[As](=O)(O)O`, the inhibition was inactive: 5.6%. The result for `COc1ccc(N/C(=N/P(=O)(N2CCOCC2)N2CCOCC2)N2CCOCC2)cc1` reads inactive: 9.1%. Under `COP1(=S)c2c(C)nn(CCC#N)c2N=C(c2ccc(F)cc2)N1C` (stereo unspecified) stands inactive: 4.38%. Under `O=C(COc1ccccc1)OC1CN2CCC1CC2` (stereo unspecified) stands inactive: -2.97%; under `O=C(Nc1ccncc1[N+](=O)[O-])c1ccc([N+](=O)[O-])cc1[N+](=O)[O-]`, inactive: 2.53%. On to `CCOC(=O)c1ccc(NC(=O)C(C)(CCl)SC)cc1` (stereo unspecified), for which the inhibition is inactive: -3.46%. `O=C(OC1CN2CCC1CC2)c1cccc([N+](=O)[O-])c1` (stereo unspecified): the inhibition is inactive: 2.42%.

Turning to `CCC(C)N(CC(C)C)C(=S)SC(NC(C)=O)C(Cl)(Cl)Cl` (stereo unspecified), the inhibition is inactive: 12.2%.

On to `CCOC(=O)Nc1ccc([As](=O)(O)O)c(O)c1`, for which the inhibition is inactive: -1.77%. Under `Cc1cc(SC(NC(=O)c2ccccc2)C(Cl)(Cl)Cl)nc(C(C)C)n1` (stereo unspecified) stands inactive: 9.25%; under `CCOC(=O)Nc1cccc([As](=O)(O)O)c1`, inactive: 2.86%; under `Cc1cc(SC(NC=O)C(Cl)(Cl)Cl)ncn1` (stereo unspecified), inactive: 14.2%. Under `O=P(Nc1ccccn1)(c1cccc2ccccc12)c1cccc2ccccc12` stands inactive: 4.98%. The result for `O=C(Nc1cc([As](=O)(O)O)ccc1O)c1ccccc1` reads inactive: 5.66%; that for `CC(C)(C)C(=O)NC(Sc1ccncn1)C(Cl)(Cl)Cl` (stereo unspecified), inactive: 18%. For `O=[N+]([O-])c1ncn(CCn2ncnc2[N+](=O)[O-])n1`, the inhibition is inactive: -0.64%. Under `O=[N+]([O-])c1cccc(NC2=NCC(CBr)S2)c1` (stereo unspecified) stands inactive: 3.48%; under `COc1ccc(C2=NCC(CBr)S2)cc1` (stereo unspecified), inactive: -0.13%.

Consider `CC(=O)N1C2C3N(C(C)=O)C1C1N(C(C)=O)C(C(N1C(C)=O)N3C(C)=O)N2C(C)=O`, for which the inhibition is inactive: 2.24%.

For `O=[N+]([O-])c1cccc2n[nH]nc12`, the inhibition is inactive: 1.18%. The result for `Cc1ccc(NP(=O)(Oc2ccccc2)Oc2ccccc2)nc1` reads inactive: -2.37%; that for `O=[N+]([O-])c1cc([N+](=O)[O-])c(CCNc2ccccc2)c([N+](=O)[O-])c1`, inactive: -2.69%.

Turning to `CCc1nc2c(n1)c1c(non1O)c1c2no[n+]1[O-]`, the inhibition was inactive: 4.77%. Under `Nc1ccc([As](=O)(O)c2ccc(N)cc2)cc1` stands inactive: -1.71%.

For the compound `C[N+]1=C2C=CC=CC=C2SC12C([N+](=O)[O-])=CC([N+](=O)[O-])=C[C-]2[N+](=O)[O-]` (stereo unspecified), the inhibition is inactive: 27.4%. The result for `CCN(/C(=N/P(=O)(N1CCOCC1)N1CCOCC1)N1CCOCC1)c1ccc(OC)cc1` reads inactive: 2.39%. `CC(C)=N/N=C(\N)N[N+](=O)[O-]`: the inhibition is inactive: 3.61%. Under `CN(C)C(=O)OCCc1n(C)cc[n+]1C` stands inactive: 4.57%; under `CC1CCN(C(=O)Oc2c(Cl)cc(Cl)c3cccnc23)CC1`, inactive: -0.96%. The result for `NC(=O)c1cc([N+](=O)[O-])cc([N+](=O)[O-])c1N` reads inactive: 2.25%; that for `CN(C(=O)Cc1ccc(Cl)c(Cl)c1)[C@H]1CCCC[C@H]1N1CCCC1`, inactive: 3.99%. The result for `Cc1ccc(N/C(=N/P(=O)(N2CCOCC2)N2CCOCC2)N2CCOCC2)cc1` reads inactive: 6.26%. `COc1ccccc1OP(=O)(Nc1ccc(C)cn1)Oc1ccccc1OC`: the inhibition was inactive: 0.29%. In the case of `Cc1ccc(OP(=O)(Nc2nccs2)Oc2ccc(C)cc2)cc1`, the inhibition was inactive: 6.04%. The result for `Clc1ccc(Cl)c(NC2=NCC(CBr)S2)c1` (stereo unspecified) reads inactive: 1.7%. Under `CN1CCCC(OC(=O)C(c2ccccc2)c2ccccc2)C1` (stereo unspecified) stands inactive: -2.24%; under `CC(C)CC(=O)NC(Sc1ccc(Cl)cc1)C(Cl)(Cl)Cl` (stereo unspecified), inactive: -0.75%. Under `Nc1cc(N)c2nonc2c1[N+](=O)[O-]` stands inactive: -2.36%. With `Oc1ccccc1CNc1ccccn1`, the inhibition was inactive: 2.71%. The result for `Cc1c2non([O-])c-2c(C)[n+](=O)[n+]1[O-]` reads inactive: -0.85%; that for `O=C(O)c1ccccc1[As](=O)(O)O`, inactive: 3.15%.

By inhibition is commonly meant the change of the read-out against control, counted positive when it falls.
